Paper PMC2994877, “A Full Pharmacological Analysis of the Three Turkey β-Adrenoceptors and Comparison with the Human β-Adrenoceptors” (PLoS ONE, 2010)

Amino acid sequences for entries named in this document (tags omitted).
UniProt A0A803YLI8, entry or part of it: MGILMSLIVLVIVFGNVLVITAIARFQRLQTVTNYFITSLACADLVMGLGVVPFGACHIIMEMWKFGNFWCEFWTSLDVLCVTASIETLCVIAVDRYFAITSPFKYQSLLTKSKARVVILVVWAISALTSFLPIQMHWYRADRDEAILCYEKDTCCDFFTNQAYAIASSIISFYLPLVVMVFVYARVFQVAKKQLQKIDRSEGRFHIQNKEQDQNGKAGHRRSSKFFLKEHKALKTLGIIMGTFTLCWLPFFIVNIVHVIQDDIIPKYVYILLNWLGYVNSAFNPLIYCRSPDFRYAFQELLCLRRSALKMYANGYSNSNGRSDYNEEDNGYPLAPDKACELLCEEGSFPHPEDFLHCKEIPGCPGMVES

How the values were obtained:
[1] = biological target: T1, turkey β4C-adrenoceptor (tβ4C) (Meleagris gallopavo, UniProt P43141); conditions: CRE-SPAP, % of 10 µM isoprenaline maximum, CHO tβ4C cells
T1 sequence (P43141 1-428): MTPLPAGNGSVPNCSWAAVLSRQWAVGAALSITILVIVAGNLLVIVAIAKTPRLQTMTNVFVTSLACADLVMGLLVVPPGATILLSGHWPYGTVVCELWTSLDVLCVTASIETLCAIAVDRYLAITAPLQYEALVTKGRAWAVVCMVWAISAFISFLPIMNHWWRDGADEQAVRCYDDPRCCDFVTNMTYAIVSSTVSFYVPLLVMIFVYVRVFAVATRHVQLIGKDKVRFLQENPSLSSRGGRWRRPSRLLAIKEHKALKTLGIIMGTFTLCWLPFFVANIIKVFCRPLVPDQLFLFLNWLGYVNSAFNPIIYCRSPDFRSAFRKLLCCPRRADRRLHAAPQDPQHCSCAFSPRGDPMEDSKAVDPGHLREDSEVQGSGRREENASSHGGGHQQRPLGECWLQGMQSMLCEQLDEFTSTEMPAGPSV

[2] = biological target: turkey β3C-adrenoceptor (tβ3C) (Meleagris gallopavo, UniProt A0A803YLI8); test: CRE-SPAP production, CHO tβ3C cells; conditions: read-out: % isop max

**Q.** `CC(Cc1ccc(O)cc1)NCC(O)c1cc(O)cc(O)c1` (centres unmarked) [Fenoterol] was tested. Which “% isop max” value [1] did it give?
**A.** 99.9±3.0%

**Q.** What about the Emax [2] of the same compound?
**A.** 106 ± 3%
